# Measured values from patent US12351585B2, “2-phenyl-3,4-dihydropyrrolo[2,1-f] [1,2,4]triazinone derivatives as phosphodiesterase inhibitors and uses thereof” (TOPADUR PHARMA AG, priority 2015, dated 2025).
# Target: human phosphodiesterase-5 (PDE5) (Homo sapiens (Human), UniProt O76074)
# Assay: PDE5 assay: formation of 5'GMP from cGMP, PDE5 enzyme isolated from human platelets
smiles,measurement,value
"CCCOc1ccc(S(=O)(=O)N2CCC(CCO)CC2)cc1-c1nn2c(CCC)c(/C=N/O)c(C)c2c(=O)[nH]1 [Compound 1r, (E)-2-(5-((4-(2-hydroxyethyl)piperidin-1-yl)sulfonyl)-2-propoxyphenyl)-5-methyl-4-oxo-7-propyl-3,4-dihydropyrrolo[2,1-f][1,2,4]triazine-6-carbaldehyde oxime]",% inhibition at 5.0E−09M,74.0%
